In this assay the target is T1, Apelin receptor (Homo sapiens, UniProt P35414).
T1 sequence (P35414 whole entry): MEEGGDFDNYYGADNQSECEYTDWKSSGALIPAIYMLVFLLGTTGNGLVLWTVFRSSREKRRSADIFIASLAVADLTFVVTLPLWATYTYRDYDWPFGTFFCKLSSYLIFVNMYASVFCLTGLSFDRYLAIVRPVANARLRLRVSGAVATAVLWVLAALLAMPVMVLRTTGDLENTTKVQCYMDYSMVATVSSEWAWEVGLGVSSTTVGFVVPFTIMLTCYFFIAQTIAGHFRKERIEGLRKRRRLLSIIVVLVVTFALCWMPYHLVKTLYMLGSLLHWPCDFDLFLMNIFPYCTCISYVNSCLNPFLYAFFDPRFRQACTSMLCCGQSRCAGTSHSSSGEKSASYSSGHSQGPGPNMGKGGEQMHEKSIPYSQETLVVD
Kind of assay: [35S]GTPgammaS Binding: The human APJ receptor was cloned by polymerase chain reaction and the gene encoding the receptor was subcloned in pFLAG-CMV™-3 expression vector (Sigma, Saint Louis, Mo. USA) in-house at Amgen. A GTPγS binding assay was performed on membranes prepared from CHO cells stably expressing human APJ receptor. The optimum experimental conditions for the concentrations of GDP, MgCl2, and NaCl in the assay buffer were initially determined. […] Incubation was at RT for 90 min and the microplate was read using a ViewLux™ ultra HTS Microplate Imager (PerkinElmer, Inc.).

The term EC50 denotes the concentration giving half of the maximal effect. The compound `COc1cccc(OC)c1-n1c(NS(=O)(=O)C[C@H](OC)c2ccc(Cl)cn2)nnc1-c1ccn(C)n1` (mixture of isomers) showed an EC50 of 1.1 nM.
